## Measured affinities in a library of Ab-14 heavy chain variants

Data: MIT Lincoln Laboratory AlphaSeq set, Engelhart et al. 2022, doi:10.1038/s41597-022-01779-4, as distributed in FLAb.

The target is the same throughout: PDVDLGDISGINAS, from the HR2 region of SARS-CoV-2 spike.

The variants keep the light chain, the linker and the frameworks of Ab-14 (scFv order VH, the linker GGGGSGGGGSGGGGS, VL).
VH: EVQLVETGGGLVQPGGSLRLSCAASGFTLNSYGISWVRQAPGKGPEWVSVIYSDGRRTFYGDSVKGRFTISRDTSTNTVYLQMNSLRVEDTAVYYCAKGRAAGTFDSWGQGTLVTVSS
VL: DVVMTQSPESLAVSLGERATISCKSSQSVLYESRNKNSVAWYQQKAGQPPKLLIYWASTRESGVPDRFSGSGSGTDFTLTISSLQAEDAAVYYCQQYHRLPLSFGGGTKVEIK

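Phage display of a naive human antibody library on the peptide gave the parent. Library AAYL49 holds single substitutions and randomly drawn double and triple substitutions in the CDRs. The scFvs were displayed on barcoded MATa yeast, the peptide on MATalpha yeast. The frequency of each diploid, read from paired DNA barcodes, reflects how well the two displayed proteins bind. Each replicate has its own calibration line, from reference interactions of the BCL2 family. Mating was done three times.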

Each variant is given by its three heavy chain CDRs, as the data file delimits them; those of the parent are GFTLNSYGIS, VIYSDGRRTFYGDSVK, GRAAGTFDS.
Scale: log10 of Kd in nM, estimated from mating counts; low values are strong binders.
Replicates are averaged; those with no signal do not enter the mean.
"nd" marks a missing value. The strain was present, yet no cells mated with the target were sequenced in that replicate, which points to weak or no binding.

| # | CDR-H1 | CDR-H2 | CDR-H3 | replicates, log10 nM | mean, log10 nM | empty controls |
|---|---|---|---|---|---|---|
| 1 | GFTLNSYGIS | VIYSDGRRTFYGDSVK | GRDAGTFDF | 1.51 1.48 1.41 | 1.47 | 2/9 (3.79) |
| 2 | GFTRNSYGIS | VIYSDGRRTFYGNSVK | FRAAGTFDS | nd nd nd | nd | 0/9 |
| 3 | GFTLNSYGIS | FMYSDGRRTFYGDSVF | GRAAGTFDS | nd 4.02 nd | 4.02 | 3/9 (4.24) |
| 4 | GFVLNSYGIS | VIYSDGRRTFYMDSVK | PRAAGTFDS | nd nd 3.71 | 3.71 | 0/9 |
| 5 | LFTLNSYGIS | VIYSDGRRTDYGDSVK | GRAIGTFDS | nd nd nd | nd | 1/9 (3.06) |
| 6 | GFTLNSYGRS | VIYSDGRRTFYLDSVK | GRAALTFDS | nd nd 4.76 | 4.76 | 1/9 (2.72) |
| 7 | GFTLNSYGIS | VAYSDGRRTFYRDSVK | GRAAWTFDS | nd nd nd | nd | 1/9 (4.49) |
| 8 | GFTLNSYGIS | VIISDGRRTFYGDSVK | GRAAKTFDW | nd nd nd | nd | 0/9 |
| 9 | GFTLNSYGIS | VIMSVGRRTAYGDSVK | GRAAGTFDS | nd nd nd | nd | 0/9 |
| 10 | GTTLNSYGIY | FIYSDGRRTFYGDSVK | GRAAGTFDS | nd 4.66 3.95 | 4.30 | 1/9 (4.44) |
| 11 | EFTMNSYGIS | VIYSPGRRTFYGDSVK | GRAAGTFDS | nd nd nd | nd | 1/9 (3.65) |
| 12 | GFRLNNYGIS | VIYSHGRRTFYGDSVK | GRAAGTFDS | nd nd nd | nd | 2/9 (4.11) |
| 13 | GFTLNAYGIS | VIYSDGRRTFYLDSVK | GRAAGTFDS | 3.95 3.39 4.98 | 4.11 | 2/9 (3.98) |
| 14 | GFTSNSYGAS | VIYSDGRRTFYGDSVK | GRADGTFDS | nd nd nd | nd | 7/9 (5.00) |
| 15 | GFTLNSYGIS | VIYSDGRRTHYGDSVK | GRAAATFDS | 3.14 nd nd | 3.14 | 0/9 |
| 16 | GCTLNSYGIS | VIYSDGRRTFYGDSVK | FRAAGFFDS | 4.54 nd nd | 4.54 | 0/9 |
| 17 | GPTLNSYGIS | VIYSDGRRTFYEDVVK | GRAAGTFDS | nd nd nd | nd | 0/9 |
| 18 | GFTLNSYGIS | VIYSDGRRTFYGDSVK | GRAAGTFWS | 0.47 0.87 1.01 | 0.78 | 0/9 |
| 19 | GMTLNSYGIS | VIVSDGRRTFYGDSVK | GNAAGTFDS | nd nd 3.44 | 3.44 | 2/9 (3.30) |
| 20 | GFTLNSYGIS | VIYSDGRRTFYGPSVI | GRAAGTFLS | nd 3.83 4.30 | 4.06 | 3/9 (4.43) |
| 21 | GFTLNSYGIS | VIYSDGRRTFYGDSVK | GGARGTWDS | 0.78 0.93 1.00 | 0.90 | 2/9 (4.33) |
| 22 | GFTLASYGIS | VIYSDGRRTTYGDKVK | GRAAGTFDS | nd nd nd | nd | 0/9 |
| 23 | GFLLNSYGIS | VIYSDGRRTFYGGSVK | GRAVGTFDS | nd nd 4.10 | 4.10 | 3/9 (4.27) |
| 24 | GFTLNSYGIS | VIMSDGRRTFYGDSVK | GRAAGTVDC | nd nd nd | nd | 1/9 (3.30) |
| 25 | GFTLNIYGIS | VIYSDGRRTFYGDSVK | GRQAGTMDS | nd nd 4.19 | 4.19 | 0/9 |
| 26 | GFTLNSYGIS | VIYSDGRRTFWKDSVK | GRAAGTVDS | nd nd 3.27 | 3.27 | 2/9 (3.42) |
| 27 | GFTLNSYGIS | VIYSDGRRTFYGDSVF | GRAAGTFDS | nd 3.49 nd | 3.49 | 1/9 (3.60) |
| 28 | GFTLNSYGIS | VIYSDGRRTFYFDSVK | PRAAGTFDS | nd nd nd | nd | 1/9 (2.88) |
| 29 | GFTLNSTIIS | VIYSDGRRTFYGDSVK | GRANGTFDS | nd 4.15 nd | 4.15 | 1/9 (5.01) |
| 30 | YFTLNSYGIS | VILSDGRRTFYGDSVK | GRATGTFDS | nd nd nd | nd | 0/9 |
| 31 | GFTLNSYGIS | RIYSDGRRTFYGDSVK | GRAAITFDR | nd nd nd | nd | 1/9 (2.83) |
| 32 | GFTLNKYGIS | VIYSDVRRTFYGDSVK | GRAMGTFDS | nd nd nd | nd | 0/9 |
| 33 | GFTLNSYGIS | VIYSDGRRDEYGDSVK | GRAAGTFQS | nd nd nd | nd | 0/9 |
| 34 | GFTLNSYVIS | VSYSDGRRTFYGDCVK | GRAAGTFDS | nd nd nd | nd | 0/9 |
| 35 | GFTLNSYGIS | VYYSDGRRTFYGDSVK | GHSAGTFDS | 4.60 3.77 4.56 | 4.31 | 5/9 (4.59) |
| 36 | GFTLNSYGIS | VFYSDGRRTFYGDSVS | GRAAGGFDS | nd nd nd | nd | 0/9 |
| 37 | GFLLNVYGIS | VIYSDGRRTFYGYSVK | GRAAGTFDS | 3.88 4.41 nd | 4.15 | 4/9 (2.46) |
| 38 | GFTLNQYGDS | LIYSDGRRTFYGDSVK | GRAAGTFDS | nd 5.09 nd | 5.09 | 3/9 (4.46) |
| 39 | GFTLNQYGIS | VIYSDGKRTFYGDSSK | GRAAGTFDS | 1.67 1.73 1.78 | 1.73 | 1/9 (5.02) |
| 40 | GFTLNSYGIS | VIYSDGYRTFYGDVVY | GRAAGTFDS | nd nd 6.00 | 6.00 | 3/9 (4.30) |
| 41 | GWTLNSYGIS | SIYSDGRRTFYGGSVK | GRAAGTFDS | nd nd 2.84 | 2.84 | 1/9 (4.08) |
| 42 | GFTLNSYGIS | VIYSDGRRTFYGDFNK | GRAAGTFDR | nd 4.26 nd | 4.26 | 1/9 (5.39) |
| 43 | GFTLNSYGIS | VIYSDGRRTFYGHSVK | GRMAGTFDS | 2.14 1.72 2.25 | 2.04 | 0/9 |
| 44 | GFTLNSYGIS | VIPSDGRRTFYGDSVK | GRAAGTFDS | nd nd nd | nd | 0/9 |

Parent in this assay: reference entry 0.65, copy in this library 4.11 (one replicate of three).
Background: pairings of library AAYL49 with three empty control strains gave a value in 15% of cases (median 4.06, 5th percentile 2.83). Values in that range, when seen in few replicates, are hard to tell from nonspecific mating. Also given: how often the same scFv was detected with the empty control strains, with their mean in brackets.